Active and inactive are the calls of the source. The calls are words filed in the database; no cut-off is given here.

Amino acid sequences for entries named in this document (tags omitted). A change or cut given only in a name is not applied to a line headed by its entry.
UniProt P37231: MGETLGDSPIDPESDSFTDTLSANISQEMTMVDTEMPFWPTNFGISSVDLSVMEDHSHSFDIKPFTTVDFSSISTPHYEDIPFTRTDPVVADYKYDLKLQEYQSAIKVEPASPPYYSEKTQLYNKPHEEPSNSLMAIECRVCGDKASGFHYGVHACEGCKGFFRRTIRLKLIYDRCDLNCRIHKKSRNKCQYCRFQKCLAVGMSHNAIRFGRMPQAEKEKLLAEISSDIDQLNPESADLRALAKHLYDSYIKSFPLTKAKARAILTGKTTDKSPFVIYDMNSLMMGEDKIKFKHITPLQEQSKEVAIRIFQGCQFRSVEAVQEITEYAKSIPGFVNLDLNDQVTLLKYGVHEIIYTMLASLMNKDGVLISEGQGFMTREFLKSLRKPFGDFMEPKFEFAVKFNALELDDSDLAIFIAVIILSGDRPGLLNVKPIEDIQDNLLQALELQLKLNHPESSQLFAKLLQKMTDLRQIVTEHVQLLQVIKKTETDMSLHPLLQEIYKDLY

This test has as its target Peroxisome proliferator-activated receptor gamma (Homo sapiens, UniProt P37231). Description: Effect on GAL4-tagged human PPARgamma LBD expressed in human HepG2 cells incubated for 20 to 22 hrs by luciferase reporter gene assay. Format: cell-based.
Turning to `CC(C)(Oc1ccc(CCOc2ccc(/N=N/c3ccccc3)cc2)cc1)C(N)=O`, the outcome was inactive. On to `COc1ccc(S(=O)(=O)NC(=O)C(C)(C)Oc2ccc(CCOc3ccc(/N=N/c4ccccc4)cc3)cc2)cc1`, for which the result was inactive. For `CCCCNC(=O)C(C)(C)Oc1ccc(CCOc2ccc(/N=N/c3ccccc3)cc2)cc1`, the outcome was inactive. For `Cc1ccc(S(=O)(=O)NC(=O)C(C)(C)Oc2ccc(CCOc3ccc(/N=N/c4ccccc4)cc3)cc2)cc1`, the result was inactive. For `CC(=O)Nc1ccc(S(=O)(=O)NC(=O)C(C)(C)Oc2ccc(CCOc3ccc(/N=N/c4ccccc4)cc3)cc2)cc1`, the outcome was inactive.

Regarding `CC(C)(Oc1ccc(CCOc2ccc(/N=N/c3ccccc3)cc2)cc1)C(=O)NS(=O)(=O)c1ccc(NC(=O)c2ccccc2)cc1`, the result was inactive.

Take `CCCCNC(=O)C(C)(C)Oc1ccc(CCOc2ccc(NC(=O)Nc3ccccc3)cc2)cc1`: the outcome was inactive. Take `CC(C)(Oc1ccc(CCOc2ccc(/N=N/c3ccccc3)cc2)cc1)C(=O)NCc1ccccc1`: the outcome was inactive.

Values taken from ChEMBL document CHEMBL4613275, “Sulfonimide and Amide Derivatives as Novel PPARα Antagonists: Synthesis, Antiproliferative Activity, and Docking Studies” (ACS Med Chem Lett, 2020).
